Laboratory results published in patent publication US7060683B2, “Hydroxamate-containing cysteine and serine protease inhibitors” (Cephalon, Inc., priority 1998, dated 2006).

Molecular target: T1, Recombinant human calpain I (Homo sapiens, UniProt P07384)
T1 construct: made in house
T1 sequence (P07384 1-714): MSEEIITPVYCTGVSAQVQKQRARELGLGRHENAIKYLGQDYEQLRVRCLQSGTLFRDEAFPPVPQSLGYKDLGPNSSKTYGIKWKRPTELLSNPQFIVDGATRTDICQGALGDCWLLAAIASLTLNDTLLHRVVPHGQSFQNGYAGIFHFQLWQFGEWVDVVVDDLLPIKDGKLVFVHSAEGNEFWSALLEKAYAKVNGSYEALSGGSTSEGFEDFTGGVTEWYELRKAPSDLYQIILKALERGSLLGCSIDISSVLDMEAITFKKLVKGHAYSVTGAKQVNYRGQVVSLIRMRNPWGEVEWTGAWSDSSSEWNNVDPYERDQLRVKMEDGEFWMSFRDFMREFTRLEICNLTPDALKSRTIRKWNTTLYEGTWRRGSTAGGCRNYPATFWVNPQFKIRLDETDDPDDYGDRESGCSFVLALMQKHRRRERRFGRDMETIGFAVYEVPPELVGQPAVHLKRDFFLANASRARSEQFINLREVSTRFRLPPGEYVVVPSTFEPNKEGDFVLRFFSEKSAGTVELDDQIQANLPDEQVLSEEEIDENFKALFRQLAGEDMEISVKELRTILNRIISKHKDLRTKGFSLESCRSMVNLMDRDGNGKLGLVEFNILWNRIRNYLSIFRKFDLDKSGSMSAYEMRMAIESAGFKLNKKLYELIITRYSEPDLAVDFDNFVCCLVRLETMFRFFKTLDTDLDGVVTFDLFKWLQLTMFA
T1 sequence (P04632 1-268 partner): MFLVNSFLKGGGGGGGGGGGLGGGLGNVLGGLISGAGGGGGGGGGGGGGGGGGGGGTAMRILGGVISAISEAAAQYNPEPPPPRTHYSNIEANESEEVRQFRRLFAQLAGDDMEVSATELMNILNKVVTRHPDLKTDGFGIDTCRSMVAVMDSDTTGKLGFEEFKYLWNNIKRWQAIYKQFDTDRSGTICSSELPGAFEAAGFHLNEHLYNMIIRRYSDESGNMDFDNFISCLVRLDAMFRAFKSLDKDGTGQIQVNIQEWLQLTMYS
Assay: Inhibition of Calpain (Succ-Leu-Tyr-MNA substrate hydrolysis)
Assay type: biochemical
Conditions: 0.2 mM Succ-Leu-Tyr-MNA, pH 7.5, five to seven concentrations
Experimental: To evaluate inhibitory activity, stock solutions (40 times concentrated) of each compound to be tested were prepared in 100% anhydrous DMSO and 5 μL of each inhibitor preparation were aliquoted into each of three wells of a 96-well plate. Recombinant human calpain I, prepared by the method of Meyer et al. (Biochem., J. 1996, 314: 511–519), was diluted into assay buffer (i.e., 50 mM Tris, 50 mM NaCl, 1 mM EDTA, 1 mM EGTA, and 5 mM β-mercaptoethanol, pH 7.5, including 0.2 mM Succ-Leu-Tyr-MNA), and 175 μl was aliquoted into the same wells containing the independent inhibitor stocks as well as to positive control wells containing 5 μl DMSO, but no compound. To start the reaction, 20 μl of 50 mM CaCl2 in assay buffer was added to all wells of the plate, excepting three, which were used as background signal baseline controls. Substrate hydrolysis was monitored every 5 minutes for a total of 30 minutes. […]
Inhibition of calpain I activity was calculated as the percent decrease in the rate of substrate hydrolysis in the presence of inhibitor relative to the rate in its absence. […] The results were plotted as percent inhibition versus log inhibitor concentration, and the IC50 was calculated by fitting the data to the four-parameter logistic equation shown below using the program GraphPad Prism (GraphPad Software, Inc., San Diego, Calif.). y=d+[(a−d)/(1+(x/c)^b)] […]

IC50: 0.012 µM
Compound: CC(C)[C@H](NC(=O)OCc1ccccc1)C(=O)N[C@@H](Cc1ccccc1)C(=O)C(=O)NOCc1ccccc1 [Example 10, Cbz-Val-Phe-CONHOBn]
